Tests used:
CETP [1] = target: T1, CETP (Homo sapiens, UniProt P11597); experiment: Assay of CETP Inhibition Using Purified Components (Reconstituted Buffer Assay); assay type: biochemical
CETP [2] = target: T1, CETP; experiment: Assay of CETP Inhibition in Human Plasma; assay type: biochemical; settings: read-out: IC50 Inhibition of CETP Activity in Human Plasma Assay; human EDTA plasma pool, [3H]CE-HDL, 37° C., 4 hours

By UniProt entry, the sequences of proteins in these tests, tags left out. Residues count along the entry.
UniProt P11597, 18-493 limits assumed: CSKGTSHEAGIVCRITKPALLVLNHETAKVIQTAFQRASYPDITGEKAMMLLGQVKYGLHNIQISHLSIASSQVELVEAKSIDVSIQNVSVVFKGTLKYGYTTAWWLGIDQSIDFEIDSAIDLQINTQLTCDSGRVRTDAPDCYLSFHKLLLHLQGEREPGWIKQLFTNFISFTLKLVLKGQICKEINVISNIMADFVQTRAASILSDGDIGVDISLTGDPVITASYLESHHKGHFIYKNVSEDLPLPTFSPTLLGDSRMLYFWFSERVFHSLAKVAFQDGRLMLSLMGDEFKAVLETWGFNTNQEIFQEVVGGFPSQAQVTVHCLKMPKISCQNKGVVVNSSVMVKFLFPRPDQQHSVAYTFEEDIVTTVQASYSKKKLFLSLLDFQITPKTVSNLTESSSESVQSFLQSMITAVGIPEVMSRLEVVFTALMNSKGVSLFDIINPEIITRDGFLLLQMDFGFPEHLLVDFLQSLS

| Compound | IC50 (CETP [1]) | IC50 (CETP [2]) |
| --- | --- | --- |
| O[C@H](CN(Cc1cccc(OC(F)(F)F)c1)c1cccc(Br)c1)C(F)(F)F | 3.2 µM | – |
| O[C@H](CNCc1cccc(OC(F)(F)F)c1)C(F)(F)F | > 50 µM | – |
| CC(C)Oc1cccc(N(Cc2cccc(OC(F)(F)C(F)F)c2)C[C@@H](O)C(F)(F)F)c1 | 0.066 µM | 2 µM |

— patent US7253211B2, “(R)-chiral halogenated substituted fused heterocyclic amino compounds useful for inhibiting cholesterol ester transfer protein activity” (Pfizer Inc., priority 1999, dated 2007)
